Experimental data from US5739278A, “Compositions for protein tyrosine phosphatases” (University of Washington, priority 1995, dated 1998).

Target: T1, PTP1B (Homo sapiens, UniProt P18031)
T1 construct: The 37 kDa form of PTP1B; from tissue; host or cells: placenta
T1 sequence (P18031 1-321 limits assumed): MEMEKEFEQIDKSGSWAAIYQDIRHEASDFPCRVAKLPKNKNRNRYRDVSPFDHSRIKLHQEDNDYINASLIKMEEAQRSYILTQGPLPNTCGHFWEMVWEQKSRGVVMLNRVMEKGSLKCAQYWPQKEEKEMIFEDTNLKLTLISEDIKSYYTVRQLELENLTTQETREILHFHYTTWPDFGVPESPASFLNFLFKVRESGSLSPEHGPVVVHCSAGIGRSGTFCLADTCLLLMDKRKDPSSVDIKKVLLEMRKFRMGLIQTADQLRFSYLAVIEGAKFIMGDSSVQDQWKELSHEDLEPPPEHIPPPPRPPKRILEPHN
Experiment: Phosphatase assay with ENDY(P)INASL as substrate
Assay type: biochemical
Experimental: The tyrosine phosphatases TC.PTP, TCΔC11.PTP, and RPTPα were purified from infected Sf9 cells as described recently (Zander et al., Biochemistry 30: 6964-6970, 1991; Daum et al., J. Biol. Chem. 266: 12211-12215, 1991). The 37 kDa form of PTP1B and CD45 were purified from placenta and spleen, respectively (according to Tonks et al., J. Biol. Chem. 263: 6722-6730, 1988; Tonks et al., Biochemistry 27: 8695-8701, 1988).
Phosphatase assays with ENDY(P)INASL were performed in buffer M6. Aliquots of 30 μl or 60 μl containing the phosphopeptide, the phosphatase (-beads) and effectors were incubated for 10 minutes at 30° C. The reaction was stopped by adding 200 μl of a suspension of 10% activated, acid-washed Norit A charcoal (v/v) in 0.9N HCl, 0.1M pyrophosphate and 2 mM NaH2 PO4 (according to Streuli et al., Proc. Natl. Acad. Sci. USA 86: 8698-8702, 1989). The mixture was cleared by 10-minute centrifugation and the radioactivity of 150 μl of the supernate was determined. Assays with MBP and RCML were performed as described in Tonks et al., J. Biol. Chem. 263: 6722-6730, 1988. Protein concentration was determined with BSA as standard (Bradford, Anal. Biochem. 72: 248-254, 1976).

For `[O]=[V]([O-])([O-])[O-]` [vanadate], the “Phosphatase activity in percent of the value obtained in the absence of effectors” value (“Phosphatase activity in percent” below) (effector 1.0 μM) was 56%, the “Phosphatase activity in percent” value (effector 10 μM) was 5% and the “Phosphatase activity in percent” value (effector 100 μM) was 1%.
